For 13 compounds, IC50 results are on record in patent US20260022143A1, “Cyclic Peptide Inhibitors of IL-23” (JANSSEN PHARMACEUTICA NV, priority 2022, published 2026).

pIC50: −log10 of the molar value.

In this assay the target is T1, IL-23R (Homo sapiens, UniProt Q5VWK5).
T1 construct: host or cells: HEK293
T1 sequence (Q5VWK5 24-629): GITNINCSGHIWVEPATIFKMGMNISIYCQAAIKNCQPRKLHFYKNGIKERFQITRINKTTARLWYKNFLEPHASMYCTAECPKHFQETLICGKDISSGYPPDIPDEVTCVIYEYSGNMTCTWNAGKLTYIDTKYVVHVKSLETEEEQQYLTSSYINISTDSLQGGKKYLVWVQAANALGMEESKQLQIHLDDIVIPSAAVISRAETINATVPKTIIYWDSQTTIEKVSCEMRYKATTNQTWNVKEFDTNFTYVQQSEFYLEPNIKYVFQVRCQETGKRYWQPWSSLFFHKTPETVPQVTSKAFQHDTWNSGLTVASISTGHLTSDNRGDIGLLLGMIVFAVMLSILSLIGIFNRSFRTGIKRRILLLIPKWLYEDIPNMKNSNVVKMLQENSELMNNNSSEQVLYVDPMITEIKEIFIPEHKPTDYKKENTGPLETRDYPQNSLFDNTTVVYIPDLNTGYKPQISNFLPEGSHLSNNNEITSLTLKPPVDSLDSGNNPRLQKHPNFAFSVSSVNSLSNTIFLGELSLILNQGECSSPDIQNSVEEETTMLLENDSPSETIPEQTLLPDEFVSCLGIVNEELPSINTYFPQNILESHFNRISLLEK
The experiment in a line: IL23R Reporter Assay. The format is cell-based. To be noted: HEK293 cells containing IL-23R, IL-12RP1 and STAT-inducible firefly luciferase reporter; 10 ng/mL IL-23 (EC90); 5 h at 37° C.; read-out: IL23R Reporter Assay.
`CC(=O)N(C)CCCC[C@@H]1NC(=O)[C@H](Cc2c[nH]c3c(C)cccc23)NC(=O)[C@H]([C@@H](C)O)NC(=O)[C@H](CC(=O)N(C)C)NC(=O)[C@@H](NC(=O)C(F)(F)F)C(C)(C)SSC(C)(C)[C@@H](C(=O)N[C@@H](Cc2ccc(OCCN)cc2)C(=O)N[C@@H](Cc2ccc3ccccc3c2)C(=O)NC2(C(=O)N[C@@H](CCCCN(C)C(C)=O)C(=O)N[C@@H](CC(N)=O)C(=O)N[C@@H](Cc3cccnc3)C(=O)N(C)CC(=O)N(C)C)CCOCC2)NC1=O` [compound 68, CF3CO-Pen(3)-N(N(Me)2)-T-7MeW-K(NMeAc)-Pen(3)-AEF-2Nal-THP-K(NMeAc)-N-3Pya-Sar-CON(Me)2]: the pIC50 is 8.54.

For the compound `CC(=O)N[C@@H](COCCOCCNC(=N)N)C(=O)N[C@@H]1C(=O)N[C@@H](CC(=O)N(C)C)C(=O)N[C@@H]([C@@H](C)O)C(=O)N[C@@H](Cc2c[nH]c3c(C)cccc23)C(=O)N[C@@H](CCCCN(C)C(C)=O)C(=O)N[C@H](C(=O)N[C@@H](Cc2ccc(OCCOCCOCC[N+](C)(C)C)cc2)C(=O)N[C@@H](Cc2ccc3ccccc3c2)C(=O)NC2(C(=O)N[C@@H](CCCCN(C)C(C)=O)C(=O)N[C@@H](CC(N)=O)C(=O)N[C@@H](Cc3cccnc3)C(=O)N(C)CC(N)=O)CCOCC2)C(C)(C)SSC1(C)C` [compound 552, MeCO-gPEG2Ser-Pen(3)-N(N(Me)2)-T-7MeW-K(NMeAc)-Pen(3)-APEG3F-2Nal-THP-K(NMeAc)-N-3Pya-Sar-CON(Me)2], the pIC50 was 8.28.

`CC(=O)NCCCC[C@@H]1NC(=O)[C@H](Cc2c[nH]c3cccc(C)c23)NC(=O)[C@H]([C@@H](C)O)NC(=O)[C@H](CC(N)=O)NC(=O)[C@@H](NC(C)=O)C(C)(C)SSC(C)(C)[C@@H](C(=O)N[C@@H](Cc2ccc(OCCCCC[N+](C)(C)C)cc2)C(=O)N[C@@H](Cc2ccc3ccccc3c2)C(=O)NC2(C(=O)N[C@@H](CCCCNC(C)=O)C(=O)N[C@@H](CC(N)=O)C(=O)N[C@@H](Cc3cccnc3)C(=O)N(C)CC(N)=O)CCCC2)NC1=O` [compound 537, MeCO-Pen(3)-N-T-7MeW-K(Ac)-Pen(3)-TMAPF-2Nal-Acpx-K(Ac)-N-3Pya-Sar-CONH2]: the pIC50 was 8.54.

Turning to `CC(=O)NCCCC[C@@H]1NC(=O)[C@H](Cc2c[nH]c3c(C)cccc23)NC(=O)[C@H]([C@@H](C)O)NC(=O)[C@H](CC(N)=O)NC(=O)[C@@H](NC(=O)C(F)(F)F)C(C)(C)SSC(C)(C)[C@@H](C(=O)N[C@@H](Cc2ccc(OCCN)cc2)C(=O)N[C@@H](Cc2ccc3ccccc3c2)C(=O)NC2(C(=O)N[C@@H](CCC(=O)N(C)C)C(=O)N[C@@H](CC(N)=O)C(=O)N[C@@H](Cc3cccnc3)C(=O)N(C)CC(N)=O)CCOCC2)NC1=O` [compound 72], the pIC50 was 8.60.

For `CC(=O)N[C@H](CCCNC(=N)N)C(=O)N[C@@H]1C(=O)N[C@@H](CC(=O)N(C)C)C(=O)N[C@@H]([C@@H](C)O)C(=O)N[C@@H](Cc2c[nH]c3c(C)cccc23)C(=O)N[C@@H](CCCCN(C)C(C)=O)C(=O)N[C@H](C(=O)N[C@@H](Cc2ccc(OCCCCC[N+](C)(C)C)cc2)C(=O)N[C@@H](Cc2ccc3ccccc3c2)C(=O)NC2(C(=O)N[C@@H](CCCCN(C)C(C)=O)C(=O)N[C@@H](CC(N)=O)C(=O)N[C@@H](Cc3cccnc3)C(=O)N(C)CC(=O)N(C)C)CCOCC2)C(C)(C)SSC1(C)C` [compound 345, MeCO-r-Pen(3)-N(N(Me)2)-T-7MeW-K(NMeAc)-Pen(3)-TMAPF-2Nal-THP-K(NMeAc)-N-3Pya-Sar-CON(Me)2], the pIC50 was 8.60.

With `CC(=O)N[C@@H]1C(=O)N[C@@H](CC(=O)N(C)C)C(=O)N[C@@H]([C@@H](C)O)C(=O)N[C@@H](Cc2c[nH]c3c(C)cccc23)C(=O)N[C@@H](CCCC[N+](C)(C)C)C(=O)N[C@H](C(=O)N[C@@H](Cc2ccc(OCCN(C)C)cc2)C(=O)N[C@@H](Cc2ccc3ccccc3c2)C(=O)NC2(C(=O)N[C@@H](CCCC[N+](C)(C)C)C(=O)N[C@@H](CC(N)=O)C(=O)N[C@@H](Cc3cccnc3)C(=O)N(C)CC(=O)N(C)C)CCOCC2)C(C)(C)SSC1(C)C` [compound 117, MeCO-Pen(3)-N(N(Me)2)-T-7MeW-K(Me)3-Pen(3)-AEF(N(Me)2)-2Nal-THP-K(Me)3-N-3Pya-Sar-CON(Me)2], the pIC50 was 8.66.

Regarding `CC(=O)N(C)CCCC[C@@H]1NC(=O)[C@H](Cc2c[nH]c3c(C(F)(F)F)cccc23)NC(=O)[C@H]([C@@H](C)O)NC(=O)[C@H](CC(=O)N(C)C)NC(=O)[C@@H](NC(=O)C(F)(F)F)C(C)(C)SSC(C)(C)[C@@H](C(=O)N[C@@H](Cc2ccc(OCCN)cc2)C(=O)N[C@@H](Cc2ccc3ccccc3c2)C(=O)NC2(C(=O)N[C@@H](CCCCN(C)C(C)=O)C(=O)N[C@@H](CC(N)=O)C(=O)N[C@@H](Cc3cccnc3)C(=O)N(C)CC(=O)N(C)C)CCOCC2)NC1=O` [compound 94, CF3CO-Pen(3)-N(N(Me)2)-T-7CF3W-K(NMeAc)-Pen(3)-AEF-2Nal-THP-K(NMeAc)-N-3Pya-Sar-CON(Me)2], the pIC50 is 8.41.

In the case of `COCCOCCOCC(=O)NCC[N+](C)(C)CC(=O)N[C@@H]1C(=O)N[C@@H](CC(=O)N(C)C)C(=O)N[C@@H]([C@@H](C)O)C(=O)N[C@@H](Cc2c[nH]c3c(C)cccc23)C(=O)N[C@@H](CCCCN(C)C(C)=O)C(=O)N[C@H](C(=O)N[C@@H](Cc2ccc(OCCOCCOCC[N+](C)(C)C)cc2)C(=O)N[C@@H](Cc2ccc3ccccc3c2)C(=O)NC2(C(=O)N[C@@H](CCN(C)C(C)=O)C(=O)N[C@@H](CC(N)=O)C(=O)N[C@@H](Cc3cccnc3)C(=O)N(C)CC(=O)N(C)C)CCOCC2)C(C)(C)SSC1(C)C` [compound 197, mPEG3CO-SP6-Pen(3)-N(N(Me)2)-T-7MeW-K(NMeAc)-Pen(3)-APEG3F-2Nal-THP-Dab(NMeAc)-N-3Pya-Sar-CON(Me)2], the pIC50 is 8.54.

For the compound `CC(=O)N(C)CCCC[C@@H]1NC(=O)[C@H](Cc2c[nH]c3c(C)cccc23)NC(=O)[C@H]([C@@H](C)O)NC(=O)[C@H](CC(=O)N(C)C)NC(=O)[C@@H](NC(=O)CCOCCOCC[N+](C)(C)C)C(C)(C)SSC(C)(C)[C@@H](C(=O)N[C@@H](Cc2ccc(OCCOCCOCC[N+](C)(C)C)cc2)C(=O)N[C@@H](Cc2ccc3ccccc3c2)C(=O)NC2(C(=O)N[C@@H](CCCCN(C)C(C)=O)C(=O)N[C@@H](CC(N)=O)C(=O)N[C@@H](Cc3cccnc3)C(=O)N(C)CC(N)=O)CCOCC2)NC1=O` [compound 363, cPEG3aCO-Pen(3)-N(N(Me)2)-T-7MeW-K(NMeAc)-Pen(3)-APEG3F-2Nal-THP-K(NMeAc)-N-3Pya-Sar-CONH2], the pIC50 was 8.89.

As to `COCCOCCNC(=O)CN(C)C(=O)[C@H](Cc1cccnc1)NC(=O)[C@H](CC(N)=O)NC(=O)[C@H](CCC(=O)O)NC(=O)C1(NC(=O)[C@H](Cc2ccc3ccccc3c2)NC(=O)[C@H](Cc2ccc(OCCN)cc2)NC(=O)[C@H]2NC(=O)[C@H](CCCCNC(C)=O)NC(=O)[C@H](Cc3c[nH]c4c(C)cccc34)NC(=O)[C@H]([C@@H](C)O)NC(=O)[C@H](CC(N)=O)NC(=O)[C@@H](NC(C)=O)C(C)(C)SSC2(C)C)CCOCC1` [compound 116], the pIC50 is 8.77.

On to `CC(=O)N(C)CC[C@H](NC(=O)C1(NC(=O)[C@H](Cc2ccc3ccccc3c2)NC(=O)[C@H](Cc2ccc(OCCN)cc2)NC(=O)[C@H]2NC(=O)[C@H](CCN(C)C(=O)CCOCCOCC[N+](C)(C)C)NC(=O)[C@H](Cc3c[nH]c4c(C)cccc34)NC(=O)[C@H]([C@@H](C)O)NC(=O)[C@H](CC(=O)N(C)C)NC(=O)[C@@H](NC(=O)CCOCCOCC[N+](C)(C)C)C(C)(C)SSC2(C)C)CCOCC1)C(=O)N[C@@H](CC(N)=O)C(=O)N[C@@H](Cc1cccnc1)C(=O)N(C)CC(=O)N(C)C` [compound 196, cPEG3aCO-Pen(3)-N(N(Me)2)-T-7MeW-Dab(NMecPEG3a)-Pen(3)-AEF-2Nal-THP-Dab(NMeAc)-N-3Pya-Sar-CON(Me)2], for which the pIC50 is 8.41.

As to `CC(=O)N(C)CCCC[C@@H]1NC(=O)[C@H](Cc2c[nH]c3c(C)cccc23)NC(=O)[C@H]([C@@H](C)O)NC(=O)[C@H](CC(=O)N(C)C)NC(=O)[C@@H](NC(=O)CCOCCOCC[N+](C)(C)C)C(C)(C)SSC(C)(C)[C@@H](C(=O)N[C@@H](Cc2ccc(OCCOCCOCC[N+]3(C)CCC(F)(F)CC3)cc2)C(=O)N[C@@H](Cc2ccc3ccccc3c2)C(=O)NC2(C(=O)N[C@@H](CCCCN(C)C(C)=O)C(=O)N[C@@H](CC(N)=O)C(=O)N[C@@H](Cc3cccnc3)C(=O)N(C)CC(=O)N(C)C)CCOCC2)NC1=O` [compound 298, cPEG3aCO-Pen(3)-N(N(Me)2)-T-7MeW-K(NMeAc)-Pen(3)-dFPPEG3F-2Nal-THP-K(NMeAc)-N-3Pya-Sar-CON(Me)2], the pIC50 was 8.77.

For `CC(=O)NCCCC[C@@H]1NC(=O)[C@H](Cc2c[nH]c3c(C)cccc23)NC(=O)[C@H]([C@@H](C)O)NC(=O)[C@H](CC(N)=O)NC(=O)[C@@H](NC(C)=O)C(C)(C)SSC(C)(C)[C@@H](C(=O)N[C@@H](Cc2ccc(OCC3CCC([N+](C)(C)C)CC3)cc2)C(=O)N[C@@H](Cc2ccc3ccccc3c2)C(=O)NC2(C(=O)N[C@@H](CCCCNC(C)=O)C(=O)N[C@@H](CC(N)=O)C(=O)N[C@@H](Cc3cccnc3)C(=O)N(C)CC(N)=O)CCOCC2)NC1=O` (single isomer, unassigned) [compound 530, MeCO-Pen(3)-N-T-7MeW-K(Ac)-Pen(3)-ACHMF(S*, S*)-2Nal-THP-K(Ac)-N-3Pya-Sar-CONH2], the pIC50 was 8.54.
